How the values were obtained:
[1] = tested on: acyl CoA retinol transferase (ARAT); test: in vitro Microsomal Assay of retinol esterification, ARAT catalyzed (retinyl palmitate); type: biochemical, bovine; details: solvent blank = 100% ester formation
[2] = tested on: LRAT and ARAT catalyzed retinol esterification; test: in vitro Microsomal Assay, retinol esterification overall (statements in words); type: biochemical, bovine

- % INHIBITION, ARAT ([1]; 10 μM test compound): 14%
- % INHIBITION, ARAT ([1]; 100 μM test compound): 90%
Substance: oleyl hydroxyethyl imidazoline
- retinol esterification inhibition (in words) [2]: potent retinol esterification inhibitors

From patent US6440434B1, “Skin care composition” (Conopco, Inc., priority 1999, dated 2002)
